Read-outs that look alike come from different tables or passages of the source.
Molecular target: human LPAR1 (Homo sapiens, UniProt Q92633)
Test: In vitro functional assay of lysophosphatidic acid receptor 1 activity (calcium flux)
Format: cell-based
Conditions: read-out: LPAR1 IC50
[1] = B103 cells stably expressing human LPAR1, calcium flux (Fluo-4 NW) after lysophosphatidic acid (18:1) at EC80, 100 pM to 10 μM

By UniProt entry, the sequences of proteins in these tests, tags left out.
UniProt Q92633, whole entry: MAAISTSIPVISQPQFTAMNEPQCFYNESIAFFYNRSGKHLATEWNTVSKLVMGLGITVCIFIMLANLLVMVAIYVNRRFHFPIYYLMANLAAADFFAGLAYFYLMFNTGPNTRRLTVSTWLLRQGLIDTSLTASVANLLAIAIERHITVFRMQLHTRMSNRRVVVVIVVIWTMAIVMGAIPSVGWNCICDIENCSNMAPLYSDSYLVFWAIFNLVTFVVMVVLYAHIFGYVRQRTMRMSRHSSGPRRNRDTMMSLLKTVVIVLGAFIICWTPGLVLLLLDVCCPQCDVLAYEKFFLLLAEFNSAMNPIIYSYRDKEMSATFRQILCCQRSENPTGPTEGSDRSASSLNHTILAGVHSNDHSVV

IC50 [1] [nM]	Structure (SMILES)	IC50 [nM]
< 10	Cc1ccc(NC(=O)N(c2ccccc2C(C)C)C2CC3(CC(C(=O)O)C3)C2)c(OC(F)F)n1 (single isomer, unassigned) [292]	
	Cc1ccc(NC(=O)N(c2ccccc2C(C)C)[C@H]2CC[C@@](O)(C(F)(F)C(=O)O)CC2)c(OC(F)F)n1 (relative stereo)	10 to 100
10 to 100	Cc1ccc(NC(=O)N(c2ccccc2C(C)C)C2CC3(CC(C(=O)O)C3)C2)c(OC(F)F)n1 (single isomer, unassigned) [293]	

Source: US20250034110A1, “LPAR1 ANTAGONISTS AND USES THEREOF” (Pipeline Therapeutics, Inc., priority 2021, published 2025)
